Source: PubChem BioAssay (ICCB-Longwood Screening Facility, Harvard Medical School)
The list is not random: actives were taken first. Their share in the collection is about 0.46%.
HCMV NEC inh: inhibitors of HCMV UL50-UL53 nuclear egress complex interaction; HTRF UL50-UL53 interaction, normalized percent inhibition; inhibition, % (no concentration beside the values); 0.15% of 190,000 active; in the data active means inhibition above about 27%, passing the limit was not always enough
GIV-Gai inh: inhibitors of GIV peptide binding to Galpha-i3, primary screen, biochemical, fluorescence polarization, FITC-GIV GBA peptide, rat Galphai3; Guanine nucleotide-binding protein G(i) subunit alpha-3 (Rattus norvegicus), P08753; 0.42% of 210,000 active; percent of control (FP), % (concentration not given with the values); 90 min; stronger effect = lower value; scaled: aluminum fluoride 0%, vehicle 100%;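 active = replicate mean at 85% of control or lower, very high polarization wells dropped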;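 note: wells of about 15 µL received 100 nL stock; the first replicate is given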
GIV Gai FP conf: GIV-Galpha-i3 inhibition, FP confirmation. FITC-GIV peptide binding to Galphai3, fluorescence polarization; active compounds read low. AID 1259350. fluorescence polarization, mP at 100 µM. shares compounds with GIV-Gai inh. 38% of 580 active;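 active means inhibition score of 15 or more, meaning 100 minus mean polarization as percent of control over three replicates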;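 further: lower mP means peptide displaced from Galphai3 so more inhibition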
GIV-Gai AS conf: GIV-Galpha-i3 inhibition, AlphaScreen confirmation; shares compounds with GIV-Gai inh; AlphaScreen Galphai3-GIV binding, purified proteins, 90 min; active compounds read low; AlphaScreen counts at 100 µM; 39% of 580 active;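 active means inhibition score at or above a set limit, where the score is 100 minus the three-replicate mean percent of control signal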
The depositor's hits bear a star.

The chains behind the UniProt entries cited, without tags or fusion partners.
Guanine nucleotide-binding protein G(i) subunit alpha-3 (Rattus norvegicus), P08753, UniProt P08753, whole entry, looked up: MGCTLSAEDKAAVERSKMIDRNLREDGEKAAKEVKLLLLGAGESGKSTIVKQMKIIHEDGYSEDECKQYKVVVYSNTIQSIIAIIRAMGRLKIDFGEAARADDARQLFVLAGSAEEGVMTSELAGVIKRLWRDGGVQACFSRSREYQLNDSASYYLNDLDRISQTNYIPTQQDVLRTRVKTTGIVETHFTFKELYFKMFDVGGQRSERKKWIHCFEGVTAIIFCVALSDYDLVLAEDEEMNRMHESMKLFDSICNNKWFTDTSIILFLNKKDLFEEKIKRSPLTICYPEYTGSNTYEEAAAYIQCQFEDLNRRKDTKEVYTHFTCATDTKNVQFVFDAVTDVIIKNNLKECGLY

Screening O=S1(=O)N(Cc2ccc(F)cc2)CCCN1Cc1ccccc1F returned HCMV NEC inh -1.3 and GIV-Gai inh 108.8.
For CC(C)(C)[C@@]1(O)C[C@@H]2OC(=O)C[C@@]23C(=O)O[C@H]2OC(=O)C(O)C213 (some centres not stated) the results were HCMV NEC inh -5.4.
For COc1cc(C=C2C(=O)NC(=O)NC2=O)ccc1OS(=O)(=O)c1ccccc1[N+](=O)[O-] the results were HCMV NEC inh 51.2*, GIV-Gai inh 70.8*, GIV Gai FP conf 58.1 and GIV-Gai AS conf 54298.
For COc1cc(/C=C2\C(=O)NC(=O)N(c3ccccc3)C2=O)c([N+](=O)[O-])cc1OC the results were GIV-Gai inh 110.7.
For CC[N+](CC)=c1ccc2ccc(O)cc2o1 the results were HCMV NEC inh -31.0, GIV-Gai inh 63.0*, GIV Gai FP conf 43* and GIV-Gai AS conf 33013*.
For O=C(c1ccccc1)c1cn(Cc2ccc(F)cc2)c2ccccc12 the results were GIV-Gai inh 97.9.
Screening COc1ccc(CC(=O)N2CCN(Cc3noc4ccccc34)CC2)cc1OC returned GIV-Gai inh 108.8.
For CCN(CC)C(=O)c1ccc(NC(=O)Cn2nc(-c3ccccc3)c3ccccc3c2=O)cc1 the results were HCMV NEC inh 4.1 and GIV-Gai inh 107.1.
`CCn1nc(-c2ccccc2)nc2c(=O)n(C)c(=O)nc1-2` gave HCMV NEC inh 88.3*, GIV-Gai inh 18.6*, GIV Gai FP conf 16.3* and GIV-Gai AS conf 24179.
CCn1nc(-c2cccnc2)nc2c(=O)n(C)c(=O)nc1-2 was read as HCMV NEC inh 70.8, GIV-Gai inh 46.0*, GIV Gai FP conf 39.5* and GIV-Gai AS conf 42657.
Cc1nc2ccccc2c(=O)n1-c1ccc(OC(F)F)cc1 was read as HCMV NEC inh -12.6.
`CC1CC[C@@]2(OC1)O[C@H]1C[C@H]3[C@@H]4CC=C5CC(O[C@@H]6OC(CO)C(O[C@@H]7OC(C)C(O)C(O)C7O)C(O)C6O[C@@H]6OC(C)C(O)C(O)C6O)CC[C@]5(C)[C@@H]4CC[C@]3(C)[C@@H]1C2C` (some centres not stated) gave HCMV NEC inh -4.9.
For N#CCCn1cc(C(N)=O)c(-c2ccccc2)n1 the results were GIV-Gai inh 106.9.
`Cn1c(O)c(/C=N/C(N)=S)c(=O)n(C)c1=O` gave HCMV NEC inh -7.7.
`CC(C)c1ccc(C=C2C(=O)NC(=O)NC2=O)cc1` gave GIV-Gai inh 32.3*, GIV Gai FP conf 28* and GIV-Gai AS conf 33706.

Overlap with the part before: 2 compounds, followed by the next part.
`Cn1c(O)c(/C=N/C(N)=S)c(=O)n(C)c1=O` gave HCMV NEC inh -7.7.
`CC(C)c1ccc(C=C2C(=O)NC(=O)NC2=O)cc1` gave GIV-Gai inh 32.3*, GIV Gai FP conf 28* and GIV-Gai AS conf 33706.
O=C1NC(=O)N(c2ccccc2)C(=O)/C1=C/c1ccccc1 was read as HCMV NEC inh 6.1 and GIV-Gai inh 96.9.
Screening O=C1NC(=O)C(=Cc2ccc(N3CCOCC3)cc2)C(=O)N1 returned HCMV NEC inh -1.6 and GIV-Gai inh 102.0.
For O=C1NC(=O)C(=Cc2ccccc2)C(=O)N1 the results were HCMV NEC inh 99.1*, GIV-Gai inh 28.9*, GIV Gai FP conf 31.6* and GIV-Gai AS conf 27826*.
Screening Cc1ccc2c(c1)C1CN(C)CCC1N2C(=S)NC1CCCCC1 (configuration not stated) returned GIV-Gai inh 107.8.
For CNC1CCCC1 the results were HCMV NEC inh 0.9.
Screening CCCCn1c(=O)c(C(=O)Nc2nc3ccc(F)cc3s2)c(O)c2ccccc21 returned GIV-Gai inh 102.7.
`Cc1cc(C)c2oc(-c3ccc(N/C=c4\c(C)c(C#N)c5nc6ccccc6n5c4=O)cc3)nc2c1` gave HCMV NEC inh 2.6, GIV-Gai inh 72.6*, GIV Gai FP conf 80.3 and GIV-Gai AS conf 44971.
Screening COc1c(Cl)cc(Cl)cc1-c1c(C#N)c(N)n2c(nc3ccccc32)c1C#N returned GIV-Gai inh 101.8.
Screening CCOC(=O)C1C(=O)NC2(C)Oc3ccccc3C1C2C (configuration not stated) returned HCMV NEC inh -18.2 and GIV-Gai inh 95.0.
For COc1cc2c(no[n+]2[O-])n2nnnc12 the results were HCMV NEC inh -95.7, GIV-Gai inh 79.8*, GIV Gai FP conf 68.1 and GIV-Gai AS conf 11443*.
Cc1ccc(-n2cc(C3=CCN(CC(=O)Nc4cccnc4)CC3)cn2)cc1 was read as HCMV NEC inh -21.6 and GIV-Gai inh 104.4.
Screening C=CCN1C(=O)NC(=O)/C(=C/c2ccc(OCC(=O)O)c(OCC)c2)C1=O returned HCMV NEC inh 4.0 and GIV-Gai inh 97.2.
`CCc1ccc(N2C(=O)/C(=C/c3ccc(OCC(=O)O)c(Br)c3)C(=O)NC2=S)cc1` gave HCMV NEC inh -30.1, GIV-Gai inh 57.4*, GIV Gai FP conf 34.4* and GIV-Gai AS conf 3342*.
`OP(=S)(c1ccncc1)c1ccncc1` gave HCMV NEC inh -1.1.
COCC1OC(=O)c2coc3c2[C@@]1(C)C1=C(C3=O)[C@@H]2CCC(=O)[C@@]2(C)CC1OC(C)=O (some centres not stated) was read as HCMV NEC inh -83.0.

2 records drawn at random from those above, as already listed:
Screening CCOC(=O)C1C(=O)NC2(C)Oc3ccccc3C1C2C (configuration not stated) returned HCMV NEC inh -18.2 and GIV-Gai inh 95.0.
`Cc1cc(C)c2oc(-c3ccc(N/C=c4\c(C)c(C#N)c5nc6ccccc6n5c4=O)cc3)nc2c1` gave HCMV NEC inh 2.6, GIV-Gai inh 72.6*, GIV Gai FP conf 80.3 and GIV-Gai AS conf 44971.
